Literature values, collected in US8644910B2, “Imaging protocols” (Biosensors International Group, Ltd., priority 2005, dated 2014).

Settings: general somatic scan according to prior art

2-[F-18]fluoro-2-deoxy-D-glucose
typical whole-body dose: 700 mrem
